Columns and labels:
zfPXR [1] = target: T1, zfPXR (Danio rerio, UniProt A5WYG8); assay: HG5LN Gal4-zfPXR luciferase reporter gene assay, agonism; type: cell-based, zebrafish; details: HG5LN-zfPXR cells, 16h exposure; n.a. = not active
Experimental: (§1) The cell lines used in this study are listed in Supplementary Table 3 . The HG5LN, HG5LN Gal4-hPXR and HG5LN Gal4-zfPXR cell lines were previously described ([19]). Briefly, HeLa cells stably transfected with the GAL4RE5-βGlobin-Luc-SVNeo plasmid (HG5LN cell line) ([15]). HG5LN cells were stably transfected with the pSG5-GAL4(DBD)-hPXR(LBD)-puro or pSG5-GAL4(DBD)-zfPXR(LBD)-puro plasmids.
(§2) HG5LN cells were cultured in Dulbecco’s Modified Eagle Medium: Nutrient Mixture F-12 (D-MEM/F-12) containing phenol red and 1 g/L glucose and supplemented with 5% fetal bovine serum, 100 units/mL of penicillin and 100 µg/mL of streptomycin supplemented with 1 mg/mL geneticin in a 5% CO2 humidified atmosphere at 37°C. HG5LN GAL4-hPXR and GAL4-zfPXR were cultured in the same culture medium supplemented with 0.5 µg/mL puromycin.
(§3) The ability of chemicals to modulate the hPXR and zfPXR was investigated in HG5LN, HG5LN-hPXR, HG5LN-zfPXR, and ZFL-zfPXR cell lines after exposure to serial dilutions of the compounds and measurement of luciferase activity. […] Briefly, cells were seeded in 96-well white opaque flat bottom microplates at 0.5 10^5 cells per well in culture medium. […] After 5 min, the production of light was assessed in living cells using microplate reader (MicroBeta, PerkinElmer SAS, Courtabœuf, France). […]

Protein sequences, listed by entry. Tags and fused reporters are not part of them.
UniProt A5WYG8, entry or part of it: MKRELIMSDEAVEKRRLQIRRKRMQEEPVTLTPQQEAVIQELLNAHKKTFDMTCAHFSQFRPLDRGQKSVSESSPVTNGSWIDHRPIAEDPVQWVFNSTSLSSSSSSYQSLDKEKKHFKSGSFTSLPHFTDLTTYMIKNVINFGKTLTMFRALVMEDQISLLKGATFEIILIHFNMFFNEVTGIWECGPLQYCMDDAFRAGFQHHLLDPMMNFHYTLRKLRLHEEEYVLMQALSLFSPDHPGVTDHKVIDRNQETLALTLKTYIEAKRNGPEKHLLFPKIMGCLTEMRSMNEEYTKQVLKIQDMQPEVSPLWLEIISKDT

hPXR = target: T2, hPXR (Homo sapiens, UniProt O75469)
T2 sequence (O75469 146-433 limits assumed): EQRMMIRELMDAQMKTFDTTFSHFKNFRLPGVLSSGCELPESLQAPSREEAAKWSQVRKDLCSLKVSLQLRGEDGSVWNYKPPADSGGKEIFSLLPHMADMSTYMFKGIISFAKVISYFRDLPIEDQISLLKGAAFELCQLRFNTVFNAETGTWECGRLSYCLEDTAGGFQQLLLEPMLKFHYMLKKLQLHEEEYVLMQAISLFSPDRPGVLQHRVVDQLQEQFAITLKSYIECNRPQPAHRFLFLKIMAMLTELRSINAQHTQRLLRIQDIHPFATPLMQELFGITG
Experimental: as §1, §2, §3

zfPXR [2] = target: T1, zfPXR; assay: HG5LN Gal4-zfPXR luciferase reporter gene assay, antagonism (coexposure with clotrimazole); type: cell-based, zebrafish; details: read-out: zfPXR antagonism Min
Experimental: as §1, §2, §3

zfPXR [3] = target: T1, zfPXR; details: ZFL-zfPXR; minimal activity at 10 µM, coexposure with 0.03 µM clotrimazole; % of maximal induced by 1 µM clotrimazole
Experimental: The ability of chemicals to modulate the hPXR and zfPXR was investigated in HG5LN, HG5LN-hPXR, HG5LN-zfPXR, and ZFL-zfPXR cell lines after exposure to serial dilutions of the compounds and measurement of luciferase activity. […] Briefly, cells were seeded in 96-well white opaque flat bottom microplates at 0.5 10^5 cells per well in culture medium. […] Cells were then exposed to a concentration range of the compounds by using an automated workstation (Biomek 3000, Beckman Coulter). The final concentration of DMSO in the well never exceeds 0.1% (v/v). After 16h of exposure, medium was removed and 50 µL of test medium containing 0.3 mM D-luciferin were added per well. After 5 min, the production of light was assessed in living cells using microplate reader (MicroBeta, PerkinElmer SAS, Courtabœuf, France).
In the transactivation assay, each compound was tested at various concentrations in three independent experiments at least. For each experiment, tests were performed in quadruplicates for each concentration, and data are expressed by means values with standard deviations. […] This allowed to determine EC50 and IC50 values of tested chemicals.

Structure (SMILES) | EC50 (zfPXR [1]) [nM] | hPXR agonism Max (hPXR) [%] | remaining activity at 10 µM (zfPXR [2]) [%] | zfPXR antagonism Min (zfPXR [3]) [%]
CCOP(=S)(OCC)Oc1nc(Cl)c(Cl)cc1Cl [Chlorpyriphos] | 3000 ± 300 |  |  | 
Clc1ccc(COC(Cn2ccnc2)c2ccc(Cl)cc2Cl)cc1 (stereo not shown) [Econazole nitrate, reference compound] |  | 51 | 16 | 2

Source: article PMC8167039, “A Comparative Study of Human and Zebrafish Pregnane X Receptor Activities of Pesticides and Steroids Using In Vitro Reporter Gene Assays” (Frontiers in Endocrinology, 2021)
